MC4R barr agon – MC4R agonists recruiting beta-arrestin, primary screen, cell-based, luminescence, agonist arm of biased-ligand search | activation, % at 8.9 µM | U2OS MC4R beta-arrestin complementation; percent of melanotan II response, DMSO zero | 0.98% of 360,000 active;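 active means activation above a per-plate cutoff, the mean activation of sample wells on that plate plus 3 SD, cut at about 8% in these data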
UUG fidelity – alters start codon recognition fidelity in yeast; S. cerevisiae UUG-firefly luciferase reporter, luminescence/redox ratio; activity score, % at 18.7 µM; actives 0.13% (n = 350,000); AID 602363;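 active = replicate mean at a twofold rise or more, about +100% in these data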;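 also: firefly luciferase made from a UUG start codon reports start codon fidelity; reporter light over untreated wells divided by growth signal over untreated wells; some hits fall short of that in this replicate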
NRP1-CendR mod – modulators of CendR peptide binding to NRP-1, primary screen, biochemical, fluorescence polarization, uHTS | FAM-RPARPAR peptide binding to NRP-1 | inhibition, % at 25 µM | 0.85% of 360,000 active | Neuropilin-1 (Homo sapiens), O14786;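 active means inhibition or corrected inhibition above about 18%, plus a signal ratio from 0.5 to 1.5, limit read from the data, passing the limit was not always enough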
ARFGAP1 inhibitor – inhibitors of rat ARFGAP1 GAP activity, primary screen, biochemical, fluorescence polarization, GDP tracer. ADP-ribosylation factor GTPase-activating protein 1 (Rattus norvegicus), Q62848. inhibition, % at 16.5 µM. AID 651572, 2012. Arfgap1-stimulated ARF1 GTP hydrolysis, GDP FP detection. 0.26% of 360,000 active;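 active means inhibition above a per-plate limit, mean inhibition of low control wells plus 3 SD, cut at about 25% in these data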;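 further: 0% = DMSO wells with enzyme and 100% = wells lacking Arfgap1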
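material = rat Arfgap1 catalytic domain, aa 1-136 | also added = human ARF1(Δ1-17)-GTP substrate | compound dosing = one concentration, 16.5 µM, DMSO 1.26% | times = GTP hydrolysis reaction 2 h at 25 °C | measured by = FP, GDP Alexa 633 tracer displaced from anti-GDP antibody, 620/688 nm | evaluation = percent inhibition of Arfgap1-stimulated GTP hydrolysis | replication = single well per compound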
MC4R antagonist – MC4R antagonists of cAMP signaling, primary screen, cell-based, TR-FRET, antagonist arm of biased-ligand search. inhibition, % at 6.5 µM. MC4R-expressing cells, MTII-stimulated cAMP, LANCE TR-FRET. Melanocortin receptor 4 (Homo sapiens), P32245. 0.48% of 360,000 active;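 active means inhibition above its plate's cutoff, the mean of tested wells on that plate plus 3 SD, cut at about 29% in these data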;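 further: 0% = Melanotan II alone and 100% = Melanotan II plus saturating MCL0020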
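System: U2OS-MC4R stable cell line; Technique: Eu-cAMP/anti-cAMP TR-FRET, emission 671 nm; Repeats: single well per compound; Also added: Melanotan II; Dosing: one concentration, 6.5 µM nominal; Schedule: 30-min compound, 1-h challenge, 1-h detection, room temperature.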
ASAP1 inh – inhibitors of human ASAP1 ArfGAP activity, primary screen, biochemical, fluorescence polarization; Arf-GAP with SH3 domain, ANK repeat and PH domain-containing protein 1 (Homo sapiens), …; ASAP1-stimulated ARF1 GTP hydrolysis, GDP FP detection; inhibition, % at 16.5 µM; 0.19% of 360,000 active; in the data active means inhibition above about 25%;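 further: 0% = vehicle with enzyme and substrate and 100% = no enzyme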
ARFGAP1 confirm – ARFGAP1 inhibitor hit confirmation, biochemical, fluorescence polarization, triplicate; 30% of 890 active; shares compounds with ARFGAP1 inhibitor; AID 651608, 2012; ARFGAP1-stimulated ARF1 GTP hydrolysis, GDP tracer FP; inhibition, % at 16.5 µM;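 active means average inhibition over triplicates above the hit cutoff set in the earlier primary screen, cut at about 25% in these data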;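 further: 0% = Arfgap1 plus ARF1-GTP with DMSO and 100% = wells lacking Arfgap1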
* = called active by the depositor; · = no result given. Rows were chosen to be rich in hits. Some 2.3% of all compounds tested hit in one or more screens of this group.

Protein sequences, listed by entry. Tags and fused reporters are not part of them. Residues count along the entry.
Neuropilin-1 (Homo sapiens), O14786, UniProt O14786, whole entry, looked up: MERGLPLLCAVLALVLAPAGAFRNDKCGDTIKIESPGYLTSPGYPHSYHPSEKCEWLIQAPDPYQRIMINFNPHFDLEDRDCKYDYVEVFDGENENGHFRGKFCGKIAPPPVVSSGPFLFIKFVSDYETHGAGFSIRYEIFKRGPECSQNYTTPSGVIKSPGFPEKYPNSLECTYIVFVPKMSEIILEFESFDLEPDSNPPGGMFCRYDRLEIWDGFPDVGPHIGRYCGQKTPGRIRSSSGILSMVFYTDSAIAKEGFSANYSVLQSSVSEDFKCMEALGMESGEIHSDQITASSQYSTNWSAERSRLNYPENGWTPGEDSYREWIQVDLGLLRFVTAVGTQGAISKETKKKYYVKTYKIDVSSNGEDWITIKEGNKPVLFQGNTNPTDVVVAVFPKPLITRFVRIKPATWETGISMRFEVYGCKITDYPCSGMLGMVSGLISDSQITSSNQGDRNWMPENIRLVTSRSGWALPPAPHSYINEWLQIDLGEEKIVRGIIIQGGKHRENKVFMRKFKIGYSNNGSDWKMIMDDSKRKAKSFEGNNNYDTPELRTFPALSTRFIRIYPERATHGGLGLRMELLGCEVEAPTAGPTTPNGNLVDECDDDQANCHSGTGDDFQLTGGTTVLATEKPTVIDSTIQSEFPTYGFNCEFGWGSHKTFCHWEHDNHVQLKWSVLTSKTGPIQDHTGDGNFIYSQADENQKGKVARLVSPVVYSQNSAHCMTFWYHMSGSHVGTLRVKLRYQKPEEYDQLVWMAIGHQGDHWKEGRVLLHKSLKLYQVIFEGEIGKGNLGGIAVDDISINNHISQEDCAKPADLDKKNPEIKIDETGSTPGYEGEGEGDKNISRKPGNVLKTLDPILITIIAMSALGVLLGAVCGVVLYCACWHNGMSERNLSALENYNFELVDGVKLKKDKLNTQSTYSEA
ADP-ribosylation factor GTPase-activating protein 1 (Rattus norvegicus), Q62848, UniProt Q62848, 1-136 limits assumed: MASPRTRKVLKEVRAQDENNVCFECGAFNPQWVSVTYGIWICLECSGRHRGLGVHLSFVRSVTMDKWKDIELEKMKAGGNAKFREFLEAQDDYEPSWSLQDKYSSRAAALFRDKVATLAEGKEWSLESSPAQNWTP
ADP-ribosylation factor GTPase-activating protein 1 (Rattus norvegicus), Q62848, UniProt Q62848, whole entry, looked up: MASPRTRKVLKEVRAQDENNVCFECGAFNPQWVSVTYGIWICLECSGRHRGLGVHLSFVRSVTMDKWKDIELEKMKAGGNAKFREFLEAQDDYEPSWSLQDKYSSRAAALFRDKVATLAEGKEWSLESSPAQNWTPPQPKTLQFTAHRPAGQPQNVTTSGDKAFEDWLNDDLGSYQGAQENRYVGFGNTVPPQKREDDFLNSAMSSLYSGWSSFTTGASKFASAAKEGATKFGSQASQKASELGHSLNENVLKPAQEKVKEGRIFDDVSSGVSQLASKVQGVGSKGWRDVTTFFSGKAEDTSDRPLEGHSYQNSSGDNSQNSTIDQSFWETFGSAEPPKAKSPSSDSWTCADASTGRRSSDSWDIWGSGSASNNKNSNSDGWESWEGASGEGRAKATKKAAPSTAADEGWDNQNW
Melanocortin receptor 4 (Homo sapiens), P32245, UniProt P32245, whole entry, looked up: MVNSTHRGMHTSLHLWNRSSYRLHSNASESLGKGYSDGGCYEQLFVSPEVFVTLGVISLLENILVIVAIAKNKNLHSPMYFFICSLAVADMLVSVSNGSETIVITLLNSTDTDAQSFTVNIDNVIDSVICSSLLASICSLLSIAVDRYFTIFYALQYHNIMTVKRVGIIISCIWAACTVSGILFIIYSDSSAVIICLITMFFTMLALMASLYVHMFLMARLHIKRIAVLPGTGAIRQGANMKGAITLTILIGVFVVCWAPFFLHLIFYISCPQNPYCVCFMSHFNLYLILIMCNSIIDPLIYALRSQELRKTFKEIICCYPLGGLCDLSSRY

MC4R barr agon	UUG fidelity	NRP1-CendR mod	ARFGAP1 inhibitor	MC4R antagonist	ASAP1 inh	ARFGAP1 confirm	SMILES
·	-2	·	·	·	·	·	C[C@@H]1CN([C@@H](C)CO)C(=O)c2cc(-c3cccc(C#N)c3)cnc2O[C@H]1CN(C)C(=O)c1cnccn1
0	-24	-4	26*	-3	14	13	COc1ccc2cc(C(=O)/C=C/c3cc(OC)c(O)c(OC)c3)ccc2c1
-2	·	-28	-3	2	-3	·	COc1ccc(C(=O)/C=C/c2cc(OC)c(O)c(OC)c2)c(F)c1
6	-17	-9	34*	-5	21	18	Cc1cccnc1Nc1nc(-c2ccc(O)cc2O)cs1
-2	·	0	25*	3	17	60*	O=C(NNC(=S)NC1CCCCC1)c1sc2ccccc2c1Cl
-2	13	7	7	17	8	·	CC(=O)Nc1ccc(NC(=O)CN(c2ccc(F)cc2)S(=O)(=O)c2ccc3c(c2)OCCO3)cc1
0	-10	0	27*	7	14	3	O=C(CN(c1ccc(F)cc1)S(=O)(=O)c1ccc2c(c1)OCCO2)Nc1ccc2c(c1)OCO2
0	-18	9	-6	4	-4	·	CC(=O)N1CCN=C1SCc1ccccc1Cl
2	-11	-13	29*	3	3	3	CCC(=O)N1CCN=C1SCc1ccccc1Cl
·	-8	·	·	·	·	·	COc1ccc(NC(=O)Nc2ccc3c(c2)C(=O)N([C@H](C)CO)C[C@H](C)[C@@H](CN(C)C(=O)Nc2cccc4ccccc24)O3)cc1
-2	-19	-2	25*	0	9	4	CN(C)c1ccc(NC(=O)CSc2nc(N)c(C(=O)Nc3ccc(N(C)C)cc3)s2)cc1
-2	-5	-5	39*	3	1	-3	CCOC(=O)Cc1cc(=O)c2cc(C)ccc2[nH]1

Copied from the results shown for reference:
MC4R barr agon	UUG fidelity	NRP1-CendR mod	ARFGAP1 inhibitor	MC4R antagonist	ASAP1 inh	ARFGAP1 confirm	SMILES
-2	-19	-2	25*	0	9	4	CN(C)c1ccc(NC(=O)CSc2nc(N)c(C(=O)Nc3ccc(N(C)C)cc3)s2)cc1
-2	-5	-5	39*	3	1	-3	CCOC(=O)Cc1cc(=O)c2cc(C)ccc2[nH]1

Quoted from the listing:
Result for `COc1ccc(NC(=O)Nc2ccc3c(c2)C(=O)N([C@H](C)CO)C[C@H](C)[C@@H](CN(C)C(=O)Nc2cccc4ccccc24)O3)cc1` under UUG fidelity: -8
Result for `O=C(CN(c1ccc(F)cc1)S(=O)(=O)c1ccc2c(c1)OCCO2)Nc1ccc2c(c1)OCO2` under UUG fidelity: -10
Result for `O=C(NNC(=S)NC1CCCCC1)c1sc2ccccc2c1Cl` under MC4R antagonist: 3
Result for `Cc1cccnc1Nc1nc(-c2ccc(O)cc2O)cs1` under ASAP1 inh: 21

New compounds follow
MC4R barr agon	UUG fidelity	NRP1-CendR mod	ARFGAP1 inhibitor	MC4R antagonist	ASAP1 inh	ARFGAP1 confirm	SMILES
-2	-13	-2	29*	-1	7	-2	COc1ccc(CN(C)C(=O)Cn2cnc(C(=O)Nc3ccc(C)c(C)c3)n2)cc1OC
·	17	·	·	·	·	·	CC(C)NC(=O)Nc1ccc2c(c1)C(=O)N([C@@H](C)CO)C[C@@H](C)[C@@H](CN(C)Cc1ccc3c(c1)OCO3)OCCCC[C@H](C)O2
·	-2	·	·	·	·	·	COc1ccc(NC(=O)Nc2ccc3c(c2)[C@@H]2C[C@@H](CC(=O)N4CCOCC4)O[C@@H](CO)[C@@H]2O3)cc1
-1	·	-17	27*	-5	-3	26*	N#CCCn1cc(/C=N/NC(N)=S)c(-c2ccc(-c3ccccc3)cc2)n1
0	·	-4	30*	18	8	7	O=C(COC(=O)CNS(=O)(=O)c1ccc2ccccc2c1)Nc1ccccc1Sc1ccccc1
1	-11	-2	31*	4	1	1	CC(C)NC(=O)Cn1c(SCC(=O)N2c3ccccc3CC2C)nc2ccccc21 (stereo unspecified)
-2	-11	2	-3	0	-2	·	CC(C)NC(=O)Cn1c(SCC(=O)N2CCCCCC2)nc2ccccc21
9.3*	-23	1	29*	-2	-3	12	CCOc1ccc(-c2nnn(CC(=O)NCc3ccc4c(c3)OCO4)n2)cc1
-5	·	-2	6	8	11	·	COc1ccc(-c2nnn(CC(=O)NCc3ccc4c(c3)OCO4)n2)cc1OC
-1	·	-32	28*	2	20	5	Cc1c(C=O)c(Cl)n(C)c(=O)c1C#N
-1	·	-1	2	12	2	·	CC(=O)N=Cc1c(C)c(C#N)c(=O)n(C)c1O

Screening results deposited in PubChem BioAssay by several laboratories.
